Molecular target: T1, TgCDPK1 WT (Toxoplasma gondii, UniProt Q9BJF5)
T1 sequence (Q9BJF5 1-507): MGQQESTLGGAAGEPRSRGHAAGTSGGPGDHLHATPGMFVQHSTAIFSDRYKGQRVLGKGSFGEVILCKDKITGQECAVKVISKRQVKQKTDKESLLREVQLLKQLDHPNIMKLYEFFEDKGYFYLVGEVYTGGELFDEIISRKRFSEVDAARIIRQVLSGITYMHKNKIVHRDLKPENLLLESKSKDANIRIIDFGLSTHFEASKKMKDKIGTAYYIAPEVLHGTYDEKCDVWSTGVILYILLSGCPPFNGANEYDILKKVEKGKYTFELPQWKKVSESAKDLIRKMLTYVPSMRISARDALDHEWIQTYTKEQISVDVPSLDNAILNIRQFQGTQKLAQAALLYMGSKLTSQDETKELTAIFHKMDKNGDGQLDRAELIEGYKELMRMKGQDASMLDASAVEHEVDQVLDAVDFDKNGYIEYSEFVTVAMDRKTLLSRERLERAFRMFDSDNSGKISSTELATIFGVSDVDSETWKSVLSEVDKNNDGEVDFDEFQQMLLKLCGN
Conditions: TgCDPK1 versus PfCDPK4; 90 min
Method: Recombinant expression of PfCDPK1, PfCDPK4, TgCDPK1 WT, TgCDPK1-G128M, CpCDPK1 and CpCDPK1-G152 M were purified as previously described. […] These reactions were performed in a buffer composed of 1 mM EGTA (pH 7.2), 10 mM MgCl2, 20 mM HEPES pH 7.5 (KOH), 0.1% BSA. The reactions were initiated with addition of 10 μM ATP and 2 mM CaCl2 as enzyme activation reagent. Reaction plates were incubated for 90 min with 90 rpm agitation at 30 °C. […] KinaseGlo (Promega) luminescence-based assay in which luminescence is inversely related to kinase activity and […] was used as previously described.

O=C(c1nccs1)N1CC[C@@H](Nc2nccc(-n3cc(C4CC4)nc3-c3cccc(Cl)c3)n2)C1 [(R)-RY-1-185]
IC50 for TgCDPK1 lower than for PfCDPK4: over 30 fold
